# System: HDME cells
# Assay: HDME cell proliferation
# Format: cell-based, human
# Description: FIGS. 19A, 19B, 19C, 19D and 19E display the modulation of endothelial cell proliferation by an α3β1 integrin binding peptide from TSP1. FIG. 19A: Proliferation of BAE cells was assayed in the presence of the indicated concentrations of TSP1 peptide 678 (FQGVLQNVRFVF (SEQ ID NO:6), ●) or the control peptides 686 (FQGVLQAVRFVF (SEQ ID NO:10), ▴), and 690 (FQGVLQNVAFVF (SEQ ID NO:11), ◯). Briefly, 100 μl of a 5×10^4 cell/ml suspension of BAE cells were seeded in triplicate into 96 well tissue culture plate in DMEM medium containing 1% FCS, 10 ng/ml of FGF2 and peptides at 1-40 μM concentrations. Cells were incubated for 72 h, and proliferation was measured using the Celltiter tetrazolium assay (Promega). FIG. 19B: HUVE cell proliferation was measured at 72 h for cells plated on wells coated with the indicated concentrations of TSP1 (solid bars) or 1 μg/ml of antibody P1B5 (anti-α3β1 integrin) (striped bar) or P1D6 (anti-α5 integrin) in medium 199 containing 5% FCS (striped bar). […] Proliferation was determined at 72 h, and is presented as a percent of the control, mean±S.D., n=3 for experimental points and n=6 for control. FIG. 19D: HUVE cell proliferation was determined in the presence of the indicated concentrations of TSP1 peptide 678 immobilized on the substrate (solid bars) or added in solution (striped bars). […]
substance,measurement,value
TSP1: calcium replete thrombospondin-1 purified from human platelets,"HDME cell proliferation stimulated by FGF2, soluble substance",inhibited

# Reference: patent publication US8114406B2, “Peptides and their utility in modulation of behavior of cells expressing α3β1 integrins” (The United States of America as represented by the …, priority 1999, dated 2012)
